Results taken from PubChem BioAssay AID493131 (Broad Institute, 2011).
The list shows a part of the results, in another mix than the full data. The source made the active and inactive calls.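 Rule for the calls: active = mean activation above about 17%, with every replicate also reaching it (limit read from the data, passing the limit was not always enough); inconclusive = only one of the two conditions met; inactive = the rest.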

The chains behind the UniProt entries cited, without tags or fusion partners.
UniProt P13346, whole entry: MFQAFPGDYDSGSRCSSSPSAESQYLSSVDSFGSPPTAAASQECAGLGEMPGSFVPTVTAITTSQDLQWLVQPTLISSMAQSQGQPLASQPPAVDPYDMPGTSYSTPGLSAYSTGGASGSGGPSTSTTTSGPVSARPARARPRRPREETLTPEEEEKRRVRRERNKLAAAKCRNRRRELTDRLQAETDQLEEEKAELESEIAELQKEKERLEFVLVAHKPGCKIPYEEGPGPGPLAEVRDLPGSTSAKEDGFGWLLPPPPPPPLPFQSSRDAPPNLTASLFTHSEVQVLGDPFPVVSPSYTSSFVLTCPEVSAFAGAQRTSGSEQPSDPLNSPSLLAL

Target: Protein FosB (Mus musculus) (UniProt P13346)
Assay: activators of delta FosB homodimer, primary screen, biochemical, fluorescence polarization, TAMRA-CDK5 oligo, single point (AID 493131);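 note: fluorescence polarization rise as delta FosB binds a TAMRA Cdk5 AP-1 oligo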
Conditions: purified delta FosB, at 25 µM, active compounds read high, percent of positive-control signal above neutral wells

Compound | activation
CCC(CO)(C(=O)OC1CN2CCC1CC2)c1ccccc1 (stereo not drawn) | inactive: -0.702%
COc1cccc(C(=O)N(c2cc(C)cc(C)c2)C2CCN(C(=O)OC(C)(C)C)CC2)c1 | inactive: -14.7%
COc1cc(OC)cc(C(=O)NCC2(N3CCOCC3)CCCCC2)c1 | inactive: -6.22%
CN1CCC(Nc2ccc(Cl)cc2)CC1 | inactive: 6.71%
CCOc1ncccc1C(=O)NCC1(N2CCOCC2)CCCCC1 | inactive: -4.82%
CN1CCC(Nc2ccc(F)c(Cl)c2)CC1 | inactive: -4.1%
CCCOc1ccc(C(=O)NCC2(N(C)C)CCCCC2)cc1 | inactive: -3.11%
CC(C)(C)OC(=O)N1CCC(Nc2ccccc2)CC1 | inactive: -10.9%
O=C(O)C1(Nc2ccccc2)CCN(Cc2ccccc2)CC1 | inactive: -10.5%
Cc1ccccc1NC1(C#N)CCN(Cc2ccccc2)CC1 | inactive: -0.168%
CCN1CCC(Nc2cccc(F)c2)CC1 | inactive: -2.55%
CN(C)c1ccc(C(=O)NCC2(N3CCCCC3)CCCCC2)cc1 | inactive: 1.87%
Cn1c(=O)[nH]cc(N(CCCl)CCCl)c1=O | inactive: 3.79%
COc1cc(OC)cc(C(=O)NCC2(N3CCCCC3)CCCCC2)c1 | inactive: -3.37%
CC(=O)N(c1ccccc1)C1CCNCC1 | inactive: -2.68%
Cc1ccc(NC2(C#N)CCN(Cc3ccccc3)CC2)cc1 | inactive: 0.847%
Cc1ccc(C(=O)NCC2(N3CCCCC3)CCCCC2)o1 | inactive: -3.8%
Fc1ccccc1NC1CCN(Cc2ccccc2)CC1 | inactive: -4.19%
c1ccc(CN2CCC(Nc3ccccc3)CC2)cc1 | inactive: -1.13%
Cc1cc(N(CCCl)CCCl)ccc1C=O | inactive: 2.95%
CCCN1CCC(Nc2cc(OC)cc(OC)c2)CC1 | inactive: 1.44%
CN(C)C1(CNC(=O)c2cccc(C#N)c2)CCCCC1 | inactive: 6.96%
CC(C)(C)OC(=O)N1CCC(N(C(=O)c2ccccc2)c2ccc(Cl)cc2)CC1 | inactive: -10.3%
N#Cc1ccc(C(=O)NCC2(N3CCCCC3)CCCCC2)cc1 | inactive: -3.08%
N/C(=N\O)c1c(N)no[n+]1[O-] | inactive: -2.76%

Compound | activation
CCOC(=O)N1CCC(Nc2ccc(C)cc2)CC1 | inactive: 0.38%
O=C(OC1CN2CCC1CC2)C1c2ccccc2C=Cc2ccccc21 (stereo not drawn) | inactive: -0.474%
O=C(NCC1(N2CCOCC2)CCCCC1)c1cc(Br)ccc1Cl | inactive: -3.71%
COc1cc(C(=O)NCC2(N3CCOCC3)CCCCC2)cc(OC)c1C | inactive: 0.559%
COc1ccc(C(=O)NCC2(N3CCOCC3)CCCCC2)cc1OC | inactive: -3.97%
CN1CCC(Nc2cccc(F)c2)CC1 | inactive: 1.55%
O=C(NCC1(N2CCCCC2)CCCCC1)c1cncc(Br)c1 | inactive: 3.85%
CCCOc1ccc(C(=O)NCC2(N(C)C)CCCCC2)cc1OC | inactive: -0.885%
COc1ccc(CN(CCCl)CCCl)cc1Cl | inactive: 4.1%
CN(C)c1cccc(C(=O)NCC2(N3CCCCC3)CCCCC2)c1 | inactive: -13.8%
CC(C)c1ccc(NC2CCN(C(=O)OC(C)(C)C)CC2)cc1 | inactive: -19.2%
COc1cc(OC)c(C(=O)NCC2(N(C)C)CCCCC2)cc1OC | inactive: 2.91%
O=C(NCC1(N2CCOCC2)CCCCC1)c1cc(F)c(F)cc1Cl | inactive: -1.4%
O=C(NCC1(N2CCCCC2)CCCCC1)c1cccc(C(F)(F)F)c1 | inactive: -2.4%
CC(C)c1ccc(C(=O)NCC2(N3CCOCC3)CCCCC2)cc1 | inactive: -9%
COc1ccc(NC2CCN(C(=O)OC(C)(C)C)CC2)cc1 | inactive: 1.57%
CN1CCN(CCOC(=O)C(O)(c2ccccc2)c2ccccc2)CC1 | inactive: 9.98%
O=C(NCC1(N2CCOCC2)CCCCC1)c1cc(=O)[nH]c2ccccc12 | inactive: -0.528%
COc1cc(C(=O)NCC2(N3CCCCC3)CCCCC2)ccc1OC(F)F | inactive: -8.85%
O=C(NCC1(N2CCCCC2)CCCCC1)c1ccc(OC(F)F)cc1 | inactive: -6.5%
O=C(NCC1(N2CCCCC2)CCCCC1)c1cccc([N+](=O)[O-])c1 | inactive: 1.67%
CSc1ccc(C(=O)NCC2(N3CCOCC3)CCCCC2)cc1 | inactive: 0.345%
CCN1CCC(Nc2ccc(Cl)cc2)CC1 | inactive: -3.08%
N#CC1(Nc2ccccc2)CCN(CCc2ccccc2)CC1 | inactive: -6.96%
CCOC(=O)N1CCC(Nc2cccc(C)c2)CC1 | inactive: 4.88%

Compound | activation
COc1cc(C(=O)NCC2(N(C)C)CCCCC2)ccc1OC(F)F | inactive: -2.06%
CCOc1ccc(C)cc1CN(CCCl)CCCl | inactive: -2.72%
O=C1CCN(Cc2ccccc2)CC1 | inactive: -8.1%
CCCCOc1ccc(C(=O)NCC2(N3CCOCC3)CCCCC2)cc1 | inactive: -3.43%
O=P1(N(CCCl)CCCl)SCCCS1 | inactive: 0.874%
O=C(NCC1(N2CCCCC2)CCCCC1)c1ccc(F)cc1 | inactive: -5.69%
CCOC(=O)N1CCC(Nc2ccc(F)cc2)CC1 | inactive: -3.26%
COc1ccc(NC2CCN(CCc3ccccc3)CC2)c(OC)c1 | inactive: 0.717%
O=C(NCC1(N2CCOCC2)CCCCC1)c1cc2ccccc2o1 | inactive: -5.46%
O=C(NCC1(N2CCCCC2)CCCCC1)c1ccc(Cl)nc1 | inactive: -10.1%
Cc1cc(C)cc(N(C(=O)c2ccccc2)C2CCN(C(=O)OC(C)(C)C)CC2)c1 | inactive: -3.75%
CCOC(=O)N1CCC(Nc2ccc(OC)cc2)CC1 | inactive: -1.17%
O=C(NCC1(N2CCCCC2)CCCCC1)c1ccc(Cl)s1 | inactive: -4.11%
N#CC1(Nc2ccccc2)CCN(Cc2ccccc2)CC1 | inactive: -3.62%
O=C(OC1CN2CCC1CC2)C1c2ccccc2Oc2ccccc21 (stereo not drawn) | inactive: 2.09%
COc1ccc(Cl)cc1C(=O)NCC1(N2CCOCC2)CCCCC1 | inactive: -7.44%
O=C(NCC1(N2CCCCC2)CCCCC1)c1ccc(=O)[nH]c1 | inactive: -2.48%
O=C(NCC1(N2CCCCC2)CCCCC1)c1cccs1 | inactive: 5.29%
COc1ccc(C(=O)NCC2(N3CCCCC3)CCCCC2)cc1 | inactive: 3.47%
CC(C)(C)OC(=O)N1CCC(N(C(=O)c2ccccc2)c2ccc(F)cc2)CC1 | inactive: -5.31%
COc1ccc(C(=O)NCC2(N3CCCCC3)CCCCC2)c(OC)c1OC | inactive: 2.61%
CSc1ccccc1C(=O)NCC1(N2CCCCC2)CCCCC1 | inactive: -6.45%
Cc1cccc(NC2(C#N)CCN(Cc3ccccc3)CC2)c1 | inactive: -5.51%
